# Measurements from ChEMBL document CHEMBL1143257, “Structure-activity relationships of novel HIV-1 protease inhibitors containing the 3-amino-2-chlorobenzoyl-allophenylnorstatine structure” (Bioorg Med Chem, 2008).
# Target: Protease (Human immunodeficiency virus 1, UniProt Q9YQ12)
# Test: Inhibition of HIV1 protease
row,SMILES,Ki [nM]
1,CC(C)(C)NC(=O)[C@@H]1C[C@@H]2CCCC[C@@H]2CN1C[C@@H](O)[C@H](Cc1ccccc1)NC(=O)[C@H](CC(N)=O)NC(=O)c1ccc2ccccc2n1,0.138
2,Cc1cccc(C)c1OCC(=O)N[C@@H](Cc1ccccc1)[C@@H](O)C[C@H](Cc1ccccc1)NC(=O)[C@H](C(C)C)N1CCCNC1=O [LOPINAVIR],0.016
3,CC(C)(C)NC(=O)[C@@H]1CN(Cc2cccnc2)CCN1C[C@@H](O)C[C@@H](Cc1ccccc1)C(=O)N[C@H]1c2ccccc2C[C@H]1O,0.739
